Measured values from patent US8568699B2, “Soft anticholinergic zwitterions” (priority 2005, dated 2013).

Target: M3 muscarinic receptors (guinea pig ileum) (Cavia porcellus, UniProt H0W1Z3)
Experiment: Guinea pig ileum contraction assay, pA2
Details: Table 6; carbachol as agonist, Schild plot; 4-6 ileum strips, mean ± SD

SMILES | pA2
C[N@@+]1(CC(=O)[O-])CC[C@H](OC(=O)[C@](O)(c2ccccc2)C2CCCC2)C1 | 7.33 ± 0.28
C[N@@+]1(CC(=O)[O-])CC[C@H](OC(=O)[C@@](O)(c2ccccc2)C2CCCC2)C1 | <4
C[N@+]1(CC(=O)[O-])CC[C@@H](OC(=O)[C@@](O)(c2ccccc2)C2CCCC2)C1 | 5.69 ± 0.13
